Drawing on patent publication US7220780B2, “Naaladase inhibitors for treating retinal disorders and glaucoma” (Guilford Pharmaceuticals Inc., priority 2000, dated 2007), this text covers IC50 for one substance.

By UniProt entry, the sequences of proteins in these tests, tags left out.
UniProt P70627, whole entry: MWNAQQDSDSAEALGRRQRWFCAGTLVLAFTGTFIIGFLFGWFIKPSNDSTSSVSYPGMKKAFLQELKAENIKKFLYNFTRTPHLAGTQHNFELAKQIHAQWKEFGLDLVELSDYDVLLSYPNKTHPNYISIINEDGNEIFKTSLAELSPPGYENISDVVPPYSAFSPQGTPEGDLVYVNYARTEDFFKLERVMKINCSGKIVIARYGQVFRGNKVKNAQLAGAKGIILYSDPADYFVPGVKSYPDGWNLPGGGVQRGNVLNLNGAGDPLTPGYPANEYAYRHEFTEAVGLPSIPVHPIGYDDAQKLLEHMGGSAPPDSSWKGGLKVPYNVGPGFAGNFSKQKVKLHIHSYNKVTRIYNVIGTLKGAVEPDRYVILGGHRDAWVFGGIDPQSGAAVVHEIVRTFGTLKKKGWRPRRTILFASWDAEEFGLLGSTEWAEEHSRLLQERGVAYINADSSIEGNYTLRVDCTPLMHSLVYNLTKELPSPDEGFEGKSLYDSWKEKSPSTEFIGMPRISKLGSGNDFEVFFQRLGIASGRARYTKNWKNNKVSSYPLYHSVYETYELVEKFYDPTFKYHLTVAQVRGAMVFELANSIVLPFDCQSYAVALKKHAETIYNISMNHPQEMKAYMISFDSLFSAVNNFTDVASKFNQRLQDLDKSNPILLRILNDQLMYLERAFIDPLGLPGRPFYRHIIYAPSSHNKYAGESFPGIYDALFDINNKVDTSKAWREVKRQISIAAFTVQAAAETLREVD

The target in the assay is NAALADase (Rattus norvegicus, UniProt P70627). The assay can be described thus: In vitro inhibition of NAALADase activity. Type of assay: biochemical.

What is called IC50 is the concentration at which inhibition is half-maximal. A high value points to weaker potency in that assay. In turn, “4′-(2-carboxy-5-mercaptopropyl)-[1,1′-biphenyl]-2-carboxylic acid” returned an IC50 of 87 nM.
